## Measured affinities in a library of Ab-91 heavy chain variants

Binding partner: SARS-CoV-2 spike HR2 peptide, sequence PDVDLGDISGINAS.

Ab-91 is the parent antibody, in scFv form: VL, then a 15-residue (Gly4Ser)3 linker, then VH. The light chain is unchanged in all variants.
VL: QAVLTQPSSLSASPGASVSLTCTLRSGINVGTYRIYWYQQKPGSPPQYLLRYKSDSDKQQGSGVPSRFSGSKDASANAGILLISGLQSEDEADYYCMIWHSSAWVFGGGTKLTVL
VH: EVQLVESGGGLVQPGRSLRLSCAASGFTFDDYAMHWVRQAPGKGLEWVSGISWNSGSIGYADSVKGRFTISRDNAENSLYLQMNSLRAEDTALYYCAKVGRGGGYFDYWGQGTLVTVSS

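AAYL51 was designed without a model: most single CDR substitutions and a random sample of double and triple ones. The assay is AlphaSeq: two haploid yeast populations carry antibody and antigen on their surface. After mating in shaken culture at 30 °C for 16 h, diploids were selected and their barcode pairs sequenced. Scores were corrected for input abundance and mapped to Kd with protein pairs of known affinity run in the same pool. Each pool was mated in three replicate cultures.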

Positions count from residue 1 of the parent VH; H35M puts M in place of H.
Numbers give log10(Kd / nM), so 0 is 1 nM and 3 is 1 µM. Smaller is tighter.
Averages over replicates are reported, and they cover detected replicates only.
"nd" means that the variant was in the library but no mating with the target was seen in any replicate; the authors take this as a sign of poor binding, and no number exists.
Nonspecific signal, from three strains lacking the peptide, appeared in 21% of pairings of library AAYL51, centred on 4.54 (5% of these signals below 3.26); values are not corrected for it.

changes | log10 Kd (nM), mean | seen in
H35M/F106C/Y108W | 5.08 | 2/3
S55W/A61G/K65M | nd | 0/3
T28N/V99I/G100N | nd | 0/3
H35E/G50R/F106R | 5.66 | 3/3
G50T/G103K/Y105L | nd | 0/3
H35T/Y60H/G100V | 4.31 | 1/3
S63G/G100F/G102F | nd | 0/3
Y32S/M34Q/G59T | nd | 0/3
N54H/S57L/G59K | 3.58 | 1/3
D30Y/M34N/N54T | 4.31 | 1/3
N54Y/S57G/Y60W | nd | 0/3
M34T/N54W/G59Q | nd | 0/3
S57F/S63W/Y108H | 1.65 | 3/3
F29I/D30T/G103Q | 3.20 | 2/3
D31P/W53L/Y108D | 3.13 | 1/3
S55M/S57P/G59M | 4.24 | 1/3
F27C/Y32W/V99E | nd | 0/3
G59V/D62N/V64N | 3.99 | 1/3
G26R/I51T/G56I | nd | 0/3
G59Q/D62F/F106G | nd | 0/3
H35Q/G100D/Y105R | 5.38 | 2/3
D30K/G56N | 1.31 | 3/3
I51P/R101C/Y108V | nd | 0/3
M34H/S63E | nd | 0/3
Y32M/R101P | 2.52 | 3/3
T28M/A61D/F106R | 1.65 | 3/3
D31E/G100F/D107Y | 0.75 | 3/3
H35A/I51R/G100L | 5.24 | 2/3
G26T/D62W/R101P | nd | 0/3
Y32W/G50C/W53P | 4.85 | 2/3
W53G/G56M | 3.66 | 1/3
F27T/Y32F/G56A | 3.24 | 3/3
S52N/N54M/I58A | 3.94 | 1/3
G26R/G104Q/Y105M | nd | 0/3
M34S/G56Q/V64L | 5.18 | 2/3
G59N/G103N/Y105V | 4.07 | 1/3
G50R/V64M | nd | 0/3
N54Q/G100V/Y105I | nd | 0/3
Y60P/A61Q/V64Q | nd | 0/3
S52Y/D62S/G104S | 5.81 | 2/3
D62V/Y105I/F106L | 3.13 | 1/3
F27Q/A33W/S55A | 4.53 | 2/3
Y32H/A33E/F106R | nd | 0/3
M34Q/R101D/G102Q | 5.43 | 3/3
S55K/A61T/V99T | nd | 0/3
S57Y/R101H | 3.76 | 3/3
D30R/I51E/V64E | 5.67 | 1/3
F29W/A33S/S55K | nd | 0/3

A selection of 3 entries from above:

changes,"log10 Kd (nM), mean",seen in
S55K/A61T/V99T,nd,0/3
G26T/D62W/R101P,nd,0/3
H35T/Y60H/G100V,4.31,1/3

Parent in this assay: reference entry 1.86, copy in this library 0.88.

From the AlphaSeq antibody data of Engelhart et al. 2022 (doi:10.1038/s41597-022-01779-4), copy in the FLAb collection.